# Results: published antibiotic growth screens (doi:10.1038/s41589-023-01349-8)
# The list shows a part of the results.
# System: A. baumannii ATCC 17978
# Experiment: relative growth (fraction of control); higher = less inhibition
# Details: 50 µM
row,Compound,relative growth
1,N=C(N)NOCC[C@H](N)C(=O)O,0.864
2,O=C(O)[C@H]1[C@H](C(=O)O)[C@H]2CC[C@@H]1O2,1.04
3,c1ccc2c(c1)[nH]c1cnccc12,0.791
4,COc1ccc(OC)c(C(O)C(C)N)c1.Cl (stereo unspecified),1.29
5,CNC(C)(C)Cc1ccccc1.O=S(=O)(O)O,0.929
6,C[C@@]12C(=O)OC(=O)[C@]1(C)[C@H]1CC[C@@H]2O1,1.1
7,Br.CN1C2CC(O)[C@H]1C[C@@H](OC(=O)[C@H](CO)c1ccccc1)C2 (mixture of isomers),0.994
8,NCCc1ccc([N+](=O)[O-])cc1,0.986
9,NCCCNCCSP(=O)(O)O,1.13
10,O=[N+]([O-])c1ccc(O)c([N+](=O)[O-])c1,0.704
11,COc1cc(C(=O)O)cc(OC)c1OC,0.863
12,C=CC[C@]1(O)CCC2[C@@H]3CCC4=CCCC[C@@H]4C3CC[C@@]21C (stereo partly specified),1.37
13,Nc1ccc(-c2ccc(N)cc2)cc1,0.951
14,Cc1cc(OC(=O)N(C)C)cc(=O)n1C,1.03
15,CC(C)c1ccc2c(c1O)CC[C@H]1C3=C(CC[C@]21C)C(=O)OC3,0.834
16,Nc1ccc([As](=O)(O)O)cc1,1.02
17,CC(C)c1cc2c(c(O)c1O)[C@@]1(C(=O)O)CCCC(C)(C)C1CC2 (stereo partly specified),0.997
18,COP(=S)(OC)Oc1cc(Cl)c(Cl)cc1Cl,0.155
19,COc1cc2occc2c2oc(=O)ccc12,1.47
20,CCCCCCCCC(=O)NCc1ccc(O)c(OC)c1,0.825
21,COc1c2c(cc3c1OCO3)CC[N+](C)=C2.[Cl-],1.11
22,CN1C(=O)C(O)N=C(c2ccccc2)c2cc(Cl)ccc21 (stereo unspecified),1.34
23,CCOc1ccc(N2CCNCC2)nn1,0.991
24,O=C1CNC[C@@H]2c3cccc(F)c3CCN12,0.96
25,CN1C2CCC1CC(OC(=O)C(CO)c1ccccc1)C2 (stereo unspecified),1.23
26,O=C(O)C[C@@H]1CC[C@H]2NC[C@@H](O)COC[C@@H]2O1,0.943

row,Compound,relative growth
1,COc1cccc2c1cc([N+](=O)[O-])c1c(C(=O)O)cc3c(c12)OCO3,1.04
2,N=C(N)/N=C(\N)Nc1ccc(Cl)cc1,0.793
3,Cc1cc2c(C(C)C)c(O)c(O)c(C=O)c2c(O)c1-c1c(C)cc2c(C(C)C)c(O)c(O)c(C=O)c2c1O,1.09
4,CC(=O)Nc1cc([As](=O)(O)O)ccc1O,1.07
5,O=[N+]([O-])O[C@@H]1CO[C@H]2[C@@H]1OC[C@@H]2O,0.998
6,NC[C@H]1CCCc2ccc(Cl)cc21,0.784
7,O=c1[nH]c2ccccc2n1C1CCN(CCCC(c2ccc(F)cc2)c2ccc(F)cc2)CC1,0.299
8,Cl.Cn1c(CCCC(=O)O)nc2cc(N(CCCl)CCCl)ccc21,0.977
9,O=C1NC(=S)NC(=O)C1CN1CCOCC1,1.01
10,[N-]=[N+]=NCc1ccccc1C[C@@]1(C(=O)NCCN2CCOCC2)N=C(c2ccc(OCCCO)cc2)O[C@@H]1c1ccccc1N=[N+]=[N-],0.858
11,COc1cc2c(cc1OC)[C@@]13CCN4CC5=CCOC6CC(=O)N2C1[C@H]6[C@H]5C[C@H]43 (stereo partly specified),0.957
12,O=[N+]([O-])NC1=NCCN1Cc1ccc(Cl)nc1,1.02
13,CC[C@@]1(C2O[C@@H](C3O[C@@](O)(CO)[C@H](C)C[C@@H]3C)C[C@@H]2C)CC[C@H]([C@]2(C)CCC3(C[C@H](O)[C@@H](C)[C@@H]([C@H](C)[C@@H](OC)[C@H](C)C(=O)[O-])O3)O2)O1.[Na+] (stereo partly specified),1.02
14,c1ccc(N2CCNCC2)nc1,0.989
15,CCC(=O)O[C@H]1CCC2C3CCC4=CC(=O)CC[C@]4(C)C3CC[C@@]21C (stereo partly specified),1.2
16,CC[C@@H](C)C(=O)O[C@@H]1C[C@@]2(C)[C@H](c3ccoc3)OC(=O)C[C@]23O[C@@]2(C)O[C@]34[C@H](OC(=O)C(C)C)[C@@]3(O)[C@@H](OC(=O)[C@@]5(C)O[C@@H]5C)[C@@]5(C)C[C@]3(O)[C@@](C)([C@H]5CC(=O)OC)[C@@]14O2,1.08
17,CNC(=O)Oc1ccc2c(c1)[C@]1(C)CCN(C)[C@@H]1N2C,1.06
18,NCCc1nc2ccccc2[nH]1,0.911
19,O.O.O.O=C([O-])C1[O][Sb]2[O]C(=O)C([O]2)C(C(=O)[O-])[O][Sb]2[O]C(=O)C1[O]2.[K+].[K+] (stereo unspecified),0.948
20,Cc1ccc(C[C@H]2CCCN2)cc1C,0.923
21,CN(C)C(=O)Oc1ccc[n+](C)c1.[Br-],1.09
22,CC1(C)C(=O)C=C[C@@]2(C)C1C[C@@H](O)[C@]1(C)C2CC[C@@]2(C)[C@H](c3ccoc3)OC(=O)[C@H]3O[C@]321 (stereo partly specified),1.02
23,CC1(C)C2CC(=O)[C@]3(C)C(CC[C@@]4(C)[C@H](c5ccoc5)OC(=O)[C@H]5O[C@]543)[C@@]2(C)C(=O)C[C@H]1O (stereo partly specified),0.933
24,COc1ccc(C(=O)O)cc1OC,1.03
25,CN(C)C(=O)Oc1cccc([N+](C)(C)C)c1.COS(=O)(=O)[O-],0.856
